{
  "source": "patent US20230406906A1",
  "about": "“SERPIN PEPTIDES AND METHODS OF USING THE SAME” (SERPIN PHARMA, LLC, priority 2022, published 2023)",
  "key": {"[1]": {"system": "GAP-43", "assay": "RT-qPCR of GAP-43 mRNA in primary cultured adult DRG neurons", "format": "cell-based, rat", "conditions": "240 nM, 24 h, vs vehicle", "method": "Neurite outgrowth in primary cultures of adult DRG neurons: Primary DRGs neurons were isolated from adult male Sprague Dawley rats and cultured as previously described for mice with modifications.^53 The DRGs were stripped of their roots and collected in Hanks Buffered Salt Solution (HBSS) on ice. DRGs were enzymatically digested and approximately 4000 DRG neurons were plated in each well of a 12-well tissue culture plate (Thermo Fisher Scientific, Waltham, MA, USA). All DRG neurons were cultured at 37° C. in 5% CO2 for 54 h in DMEM/F12 containing 2% B27 and 1% FBS with vehicle or SP163M (0-500 ng/ml) added every 24 h. Primary cultured DRG neurons were imaged by phase contrast and the viability of cells was assessed by Trypan blue. Primary DRG neurons were cultured, fixed in 4% paraformaldehyde, and immunofluorescence was performed using a mouse anti-βIII-tubulin primary antibody (Promega, Madison, WI, USA; cat #G7121, 1:250) and then with Alexa Fluor-488 anti-mouse antibody (Life Technologies, Carlsbad, CA, USA) as secondary antibody. DRG neurons were imaged at 20× and 40× manually, and the longest neurite length per cell was measured in 11 images from multiple wells and separate experiments. Approximately 222 and 144 neurons were measured in SP16 and control groups, respectively. Quantification was performed in a blinded manner. […]"}, "[2]": {"system": "STAT6", "assay": "IL-13 stimulated STAT6 phosphorylation in esophageal EPC2 cells (western blot)", "format": "cell-based, Human", "method": "Esophageal EPC2 cells were treated with vehicle (ddw), A1AT or SP163M. Cells were collected at time-points indicated and western blot analysis of phospho-specific STAT6 was analyzed. […] Using CRISPER/CAS9 technology, an LRP1 knockout esophageal EPC2 cell line was created."}, "[3]": {"system": "Balb/C mice", "assay": "Eosinophilic esophagitis model using A. alternata as allergen", "format": "in vivo", "conditions": "twice weekly over 4 weeks; vs vehicle and vs A1AT at a higher dose", "description": "Balb/C mice were repeatedly challenged with a series of the allergen A. alternata over 4 weeks. A. alternata is a common airborne mold associated with eosinophilic inflammation and a variety of allergic diseases, such as rhinitis, asthma and dermatitis, and is an established model that induces allergic reaction at the esophagus. In this model, the allergen challenges lead to an increase in esophageal eosinophilia. SP163M, A1AT or vehicle (control) was given twice weekly over the 4-week period for 8 total treatments. At the end of the study, esophageal sections were stained for the detection of MBP (eosinophilic marker) and quantitated per high power field."}, "[4]": {"system": "IκBα", "assay": "TNFα induced phospho-IkBa (Ser32) immunoblot in HaCat cells", "format": "cell-based, human", "conditions": "TNF-α", "method": "Cells were pretreated with either vehicle or SP163M (100 μg/ml). TSLP was measured in the supernatant via ELISA (p=0.0045 vs. vehicle treated Poly IC induced cells). FIG. 10B: HaCat cells treated as in FIG. 10A were analyzed via the CellTiter-Glo® Luminescent Cell Viability Assay by Promega. The percent change from untreated (no Poly IC) cells were compared between SP163M vs. vehicle treated poly IC induced control (p=0.0068). FIG. 10C: HaCat cells were insulted with TNFα and immunoblotted for phospho-IkBa (Ser32). GAPDH served as a loading control and signal normalization.\nTNFα treatment led to phosphorylation of IκBα (inhibitor of nuclear factor kappa B), which then activated NFκB. Therefore, in a model of skin inflammation, SP163M shut down a key inflammatory pathway (FIG. 10C)."}, "[5]": {"assay": "Phase I and Phase IIa clinical trials", "format": "in vivo", "conditions": "Phase I and ongoing Phase IIa clinical trials"}},
  "data": [
    {"smiles": "CCCC[C@H](NC(=O)[C@H](CC(C)C)NC(=O)[C@H](Cc1ccccc1)NC(=O)[C@@H](NC(=O)[C@H](Cc1ccccc1)NC(=O)[C@@H]1CCCN1C(=O)[C@H](CCCCN)NC(=O)[C@H](CC(N)=O)NC(=O)[C@H](Cc1ccccc1)NC(=O)[C@H](CCCCN)NC(=O)[C@@H](NC(C)=O)C(C)C)C(C)C)C(=O)N[C@H](C(=O)N[C@@H](CCC(=O)O)C(=O)N[C@@H](CCC(N)=O)C(=O)N[C@@H](CC(N)=O)C(=O)N[C@H](C(=O)N[C@@H](CCCCN)C(N)=O)[C@@H](C)O)[C@@H](C)CC", "note": "[SP163M, Ac-VKFNKPFVFLNIeIEQNTK-NH2]", "values": [
      {"measurement": "GAP-43 mRNA levels", "setting": "[1]", "result": "significantly increased the regenerative associated gene compared to vehicle"},
      {"measurement": "STAT6 phosphorylation", "setting": "[2]; EPC2 cells, 30 minutes post IL-13 induction", "result": "not in SP163M treated cells"},
      {"measurement": "persistence of the reduction in STAT6 phosphorylation", "setting": "[2]; EPC2 cells, post-treatment", "result": "persisted for several hours post-treatment"},
      {"measurement": "phospho-STAT6 expression in control cells (with LRP1)", "setting": "[2]; EPC2 control cells", "result": "capable of reducing phospho-STAT6 expression"},
      {"measurement": "phosphorylated STAT6 in LRP1 knockout cell line", "setting": "[2]; LRP1 knockout EPC2 cells (CRISPER/CAS9)", "result": "not capable of reducing phosphorylated STAT6"},
      {"measurement": "number of eosinophils infiltrated to the esophagus (MBP, per high power field)", "setting": "[3]", "result": "decreased the number of eosinophils that infiltrated to the esophagus"},
      {"measurement": "phosphorylation of IκBα", "setting": "[4]", "result": "inhibited the phosphorylation of IκBα by TNF-α"},
      {"measurement": "safety and tolerability", "setting": "[5]", "result": "safe and well tolerated"}
    ]}
  ]
}
